## Apparent affinities of Ab-95 variants for a coronavirus HR2 peptide

The target is the same throughout: PDVDLGDISGINAS, from the HR2 region of SARS-CoV-2 spike.

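In library AAYL52, one, two or three CDR residues were substituted; doubles and triples were drawn at random. The scFvs were displayed on barcoded MATa yeast, the peptide on MATalpha yeast. Pairs that bind mate more often; barcode pairs of the diploids are counted by sequencing. Read counts were normalised to the haploid input and turned into Kd by a linear fit to BCL2-family pairs of known affinity, for each replicate. The assay was run in three technical replicates.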

Each scFv is VH, a (GGGGS)3 linker, VL, as in the parent Ab-95, and differs from it in the CDRs of the light chain only.
VH: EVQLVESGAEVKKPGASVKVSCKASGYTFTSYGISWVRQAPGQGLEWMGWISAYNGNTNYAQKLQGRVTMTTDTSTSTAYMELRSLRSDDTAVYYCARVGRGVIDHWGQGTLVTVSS
VL: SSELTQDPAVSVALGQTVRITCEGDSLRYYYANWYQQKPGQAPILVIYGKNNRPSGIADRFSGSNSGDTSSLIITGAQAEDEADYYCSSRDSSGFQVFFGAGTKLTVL

Each variant is given by its three light chain CDRs, as the data file delimits them; those of the parent are EGDSLRYYYAN, GKNNRPS, SSRDSSGFQVF.
The read-out is the apparent dissociation constant on a log10 scale (nM): the lower, the stronger.
A pair that was not seen in that replicate is written "nd"; this usually means weak binding, but a binder can also be missed.
In this assay the parent's reference entry averaged 2.31; its copy inside this library read 2.25.

{"CDR-L1": "EGDLLREYYAN", "CDR-L2": "GKNNRPS", "CDR-L3": "SSRDSSGFQVF", "replicates, log10 nM": "nd / nd / 4.28", "signal with controls": "2 of 9 (3.70)"}
{"CDR-L1": "EGVSLRYYYAN", "CDR-L2": "GKNRRPS", "CDR-L3": "SSRDSSWFQVF", "replicates, log10 nM": "nd / nd / nd", "signal with controls": "3 of 9 (3.98)"}
{"CDR-L1": "EGDSLRYLYAN", "CDR-L2": "YKNNRPS", "CDR-L3": "SSTDSSGFQVF", "replicates, log10 nM": "4.34 / nd / nd", "signal with controls": "2 of 9 (3.89)"}
{"CDR-L1": "ERDSLRYTYAN", "CDR-L2": "GKNNRPS", "CDR-L3": "SSRDSSGTQVF", "replicates, log10 nM": "2.59 / 2.44 / 2.43", "signal with controls": "5 of 9 (4.05)"}
{"CDR-L1": "EGDCLRYYYAN", "CDR-L2": "GKNNRPL", "CDR-L3": "SSWDSSGFQVF", "replicates, log10 nM": "nd / nd / nd", "signal with controls": "1 of 9 (3.22)"}
{"CDR-L1": "EGDSLRYYYAN", "CDR-L2": "GKQSRPS", "CDR-L3": "SSRDSSGFQVC", "replicates, log10 nM": "2.35 / 3.05 / 3.19", "signal with controls": "3 of 9 (3.82)"}
{"CDR-L1": "ECDSLRYYYAN", "CDR-L2": "GKNNRPS", "CDR-L3": "SSADSSQFQVF", "replicates, log10 nM": "3.53 / 3.28 / nd", "signal with controls": "3 of 9 (3.03)"}
{"CDR-L1": "EGDYLLYYYAN", "CDR-L2": "GKNNRPC", "CDR-L3": "SSRDSSGFQVF", "replicates, log10 nM": "2.09 / 2.30 / 1.75", "signal with controls": "2 of 9 (3.37)"}
{"CDR-L1": "EGDSLRYYYAN", "CDR-L2": "GKKNRPN", "CDR-L3": "SSRDSKGFQVF", "replicates, log10 nM": "4.19 / nd / nd", "signal with controls": "0 of 9"}
{"CDR-L1": "EGDSLRYYYAN", "CDR-L2": "GKNLRPS", "CDR-L3": "NSLDSSGFQVF", "replicates, log10 nM": "2.74 / 2.74 / 2.64", "signal with controls": "2 of 9 (4.38)"}
{"CDR-L1": "EGDSLRYYYAN", "CDR-L2": "GKNEPPS", "CDR-L3": "SSRDSSGNQVF", "replicates, log10 nM": "3.16 / nd / 3.30", "signal with controls": "0 of 9"}
{"CDR-L1": "EGDMLRYYYAN", "CDR-L2": "GKNNRPS", "CDR-L3": "SSRDSSGYQFF", "replicates, log10 nM": "4.14 / 3.98 / nd", "signal with controls": "1 of 9 (4.00)"}
{"CDR-L1": "EGDSLRYYYAN", "CDR-L2": "GFNNRPS", "CDR-L3": "SSRDSSGVQVG", "replicates, log10 nM": "3.36 / 4.21 / 3.00", "signal with controls": "6 of 9 (3.93)"}
{"CDR-L1": "EGDSLRYYYAN", "CDR-L2": "GNNNRES", "CDR-L3": "SSRDSSGFQVP", "replicates, log10 nM": "3.82 / 3.08 / nd", "signal with controls": "2 of 9 (3.84)"}
{"CDR-L1": "EGFSLRYYYEN", "CDR-L2": "GKNNRPS", "CDR-L3": "SSMDSSGFQVF", "replicates, log10 nM": "nd / nd / nd", "signal with controls": "0 of 9"}
{"CDR-L1": "ETDSLRYYYAN", "CDR-L2": "GKNNRNS", "CDR-L3": "SSRDSYGFQVF", "replicates, log10 nM": "4.55 / nd / nd", "signal with controls": "1 of 9 (4.49)"}
{"CDR-L1": "EGGSLRYYYAN", "CDR-L2": "GKNNTPS", "CDR-L3": "SSRDSSGFQVN", "replicates, log10 nM": "3.56 / 3.37 / 2.42", "signal with controls": "0 of 9"}
{"CDR-L1": "EGDSLRYYYAY", "CDR-L2": "GKNNRPS", "CDR-L3": "SFRDSSGFQVN", "replicates, log10 nM": "nd / nd / nd", "signal with controls": "0 of 9"}
{"CDR-L1": "EGDSLRYYYAN", "CDR-L2": "GKNNRPS", "CDR-L3": "SARDSSGRAVF", "replicates, log10 nM": "2.54 / 2.26 / 2.06", "signal with controls": "5 of 9 (3.82)"}
{"CDR-L1": "CGDSRRYYYAN", "CDR-L2": "GKNNNPS", "CDR-L3": "SSRDSSGFQVF", "replicates, log10 nM": "3.52 / nd / nd", "signal with controls": "2 of 9 (3.27)"}
{"CDR-L1": "EGDSLRYYYAN", "CDR-L2": "GKNVRIL", "CDR-L3": "SSRDSSGFQVF", "replicates, log10 nM": "nd / nd / nd", "signal with controls": "0 of 9"}
{"CDR-L1": "EGDSLRYYYAT", "CDR-L2": "GKNYRLS", "CDR-L3": "SSRDSSGFQVF", "replicates, log10 nM": "3.11 / 4.78 / nd", "signal with controls": "2 of 9 (3.57)"}
{"CDR-L1": "EGDSLRYYYAC", "CDR-L2": "DKNNRPS", "CDR-L3": "SSRCSSGFQVF", "replicates, log10 nM": "3.09 / 2.92 / 2.35", "signal with controls": "5 of 9 (4.33)"}
{"CDR-L1": "CGDSLRYYYAN", "CDR-L2": "GKNNWPS", "CDR-L3": "SQRDSSGFQVF", "replicates, log10 nM": "nd / nd / nd", "signal with controls": "1 of 9 (2.97)"}
{"CDR-L1": "EGDSKRYYYAN", "CDR-L2": "GENNRPS", "CDR-L3": "YSRDSSGFQVF", "replicates, log10 nM": "4.43 / 3.46 / nd", "signal with controls": "4 of 9 (3.28)"}

Three control strains display no target. For library AAYL52, 28% of the pairings with them gave a signal, with a median of 3.91 and one signal in twenty below 2.90, so weak values seen in few replicates may be background. Also given: how often the same scFv was detected with the empty control strains, with their mean in brackets.

Source: Engelhart et al. 2022 (doi:10.1038/s41597-022-01779-4), MIT Lincoln Laboratory and A-Alpha Bio; data file from the FLAb repository.